Biological target: recombinant FOLR1 (Homo sapiens, UniProt P15328)
Test: Binding studies by ELISA
Experimental: Binding studies by ELISA. Binding specificity and affinity of described Farletuzumab was determined by ELISA using the recombinant FOLR1 as described previously (Shivange et al., 2018). Briefly, recombinant FOLR1 protein was coated on 96-well plate by incubation overnight at 4° C. Different amounts of nanoparticles and free antibody were incubated in the coated plates and binding was detected by two-component peroxidase substrate kit (BD Biosciences).

Sequences of proteins named here, by UniProt entry; tags and fusion partners are left off. Residues count along the entry.
UniProt P15328, 25-234: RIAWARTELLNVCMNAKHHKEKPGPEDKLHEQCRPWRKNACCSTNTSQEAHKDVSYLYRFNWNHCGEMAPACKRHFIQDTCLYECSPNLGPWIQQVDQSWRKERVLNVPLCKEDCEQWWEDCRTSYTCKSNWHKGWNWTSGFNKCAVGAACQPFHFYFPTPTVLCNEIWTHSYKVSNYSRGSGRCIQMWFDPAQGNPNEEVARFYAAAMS

binding affinity, Fc-linkered vs monomeric Farletuzumab: No significant differences
B1: Fc-linkered Farletuzumab: Farletuzumab (anti-FOLR1) with a cysteine-containing Fc-linkered sequence at the C-terminus of a heavy chain (antibody, chains of the INN, looked up)
heavy: EVQLVESGGGVVQPGRSLRLSCSASGFTFSGYGLSWVRQAPGKGLEWVAMISSGGSYTYYADSVKGRFAISRDNAKNTLFLQMDSLRPEDTGVYFCARHGDDPAWFAYWGQGTPVTVSSASTKGPSVFPLAPSSKSTSGGTAALGCLVKDYFPEPVTVSWNSGALTSGVHTFPAVLQSSGLYSLSSVVTVPSSSLGTQTYICNVNHKPSNTKVDKKV[letters of human IgG1 Fc not shown]
light: DIQLTQSPSSLSASVGDRVTITCSVSSSISSNNLHWYQQKPGKAPKPWIYGTSNLASGVPSRFSGSGSGTDYTFTISSLQPEDIATYYCQQWSSYPYMYTFGQGTKVEIKRTVAAPSVFIFPPSDEQLKSGTASVVCLLNNFYPREAKVQWKVDNALQSGNSQESVTEQDSKDSTYSLSSTLTLSKADYEKHKVYACEVTHQGLSSPVTKSFNRGEC
modifications: C-terminal cysteine-containing linker on heavy chain
